Test system: CD8+ / CD4+ T cells of donor PBMCs
Test: Intracellular cytokine staining (ICS; IFNγ, TNFα, CD107a)
Format: cell-based, human

GLFAVENFL (listed as Human cytomegalovirus) [SEQ ID NO: 4]
T-cell subset mediating the response (ICS): T-cell response mediated by CD4+ cells

From patent US20220332764A1, “T CELL EPITOPES OF HCMV AND USES OF THEREOF” (EBERHARD KARLS UNIVERSITÄT TÜBINGEN, priority 2019, published 2022)
